Test results reported in US20260216170A1, “TETRAHYDROISOQUINOLINE HETEROBIFUNCTIONAL BCL-XL DEGRADERS” (Treeline Biosciences, Inc., priority 2023, published 2026).
pEC50: −log10 of the molar value.

Sequences of proteins named here, by UniProt entry; tags and fusion partners are left off.
UniProt Q07817, whole entry: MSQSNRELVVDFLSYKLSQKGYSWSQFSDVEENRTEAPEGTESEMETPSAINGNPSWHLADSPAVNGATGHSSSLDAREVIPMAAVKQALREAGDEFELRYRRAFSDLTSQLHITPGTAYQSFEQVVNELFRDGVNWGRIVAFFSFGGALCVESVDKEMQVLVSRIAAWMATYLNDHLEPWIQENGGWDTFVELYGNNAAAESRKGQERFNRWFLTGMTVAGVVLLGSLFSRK

Target: Human BCL-XL protein (N-terminal HiBiT tagged BCL-XL expressed in HT1080 cells) (Homo sapiens, UniProt Q07817)
Assay: HiBiT Based Degradation Assay
Conditions: 24 hours incubation
From the text: HiBiT Based Degradation Assay
Human BCL-XL protein coding open reading frame fused with N-terminal HiBiT coding sequence (N-HiBiT-BCL-XL) was synthesized from Integrated DNA Technologies (IDT). Next, N-HiBiT-BCL-XL sequence was cloned into pLV-UBC-PGK-Puro, a lentivirus plasmid purchased from Vectorbuilder, to generate pLV-UBC-N-HiBiT-BCL-XL-PGK-puro. Lentiviral particles were generated from Lenti-X™ 293T cells (Clontech) by co-transfection of pLV-UBC-N-HiBiT-BCL-XL-PGK-puro plasmids and lentiviral packaging plasmid mix (Cellecta). HT-1080 [HT1080](ATCC CCL-121™) cells were infected with the lentivirus, and HT1080 cells stably integrated with the lentiviral vector were established by incubation with 1 μg/mL puromycin (Thermofisher). HT1080 cells expressing N-terminal HiBiT tagged BCL-XL were dispensed into 384-well plates pre-spotted with compounds at varying concentrations. Three thousand cells were seeded into each well in 40 μL of RPMI 1640 media. After 24 hours of incubation at 37° C. with 5% CO2, 30 μL of the NANO-GLO® HiBiT Lytic Detection System working solution (Promega) was added to each well and incubated at room temperature for 30 min. After incubation, luminescence was read on a PHERAstar FSX Plate Reader (BMG). BCL-XL degradation at each indicated concentration was normalized with DMSO control. The BCL-XL degradation curves were plotted using a four-parameter logistic model. […]

- Ymin (24 h) (bottom of BCL-XL degradation curve (remaining HiBiT-BCL-XL signal vs DMSO control), HT1080 cells): B (30% ≤ Ymin < 50%)
- pEC50 (read-out: EC50 (24 h), BCL-XL degradation, HT1080 cells expressing N-HiBiT-BCL-XL, normalized with DMSO control, geometric mean for multiple data points): 7.00 to 8.00
Compound: Cc1c(OCCC[C@H]2CCN(CC(=O)Nc3ccc4c(C5CCC(=O)NC5=O)nn(C)c4c3)[C@@H](C)C2)cccc1-c1ccc(N2CCc3ccnc(C(=O)Nc4nc5ccccc5s4)c3C2)nc1C(=O)O (some centres unmarked)
